Measured values from patent US20220249674A1, “BIOACTIVE SAPONIN LINKED TO A FUNCTIONAL MOIETY” (priority 2019, published 2022).
Entries after “also recorded” stand apart in the source; their conditions may differ.

Legend:
SK-BR-3 cells = assay: Cell viability assay (MTS), targeted 2-component system; type: cell-based; conditions: SKBR3; conjugate titration with fixed 50 μM Trastuzumab-Saporin (FIG. 53)
Protocol: (§1) Cells were seeded in a 96 well plate at 5.000-10.000 c/w in 100 μL/well and incubated overnight at 37° C. […] The media was removed from the cell culture plate and replaced by 180 μL culture media, followed by the addition of 20 μL treatment-mix/well. […] In the case that endosomal acidification inhibitors (chloroquine (Sigma Aldrich) or bafilomycin A1 (Enzo Life Sciences)) were used, the cell culture media in step 1 of treatment was replaced by 180 μL media containing 1 μM chloroquine or 0.2 μM bafilomycin A1. The plate was incubated for 1 hour at 37° C., before the 10× treatment-mix samples were added. The remaining incubation and treatment steps were performed according to standard procedures known in the field.

human A431 tumor cells = assay: A431 xenograft tumor model; type: in vivo; conditions: Balb/c nude mice
Protocol: Female Balb/c nude mice were injected subcutaneously with a suspension of human A431 tumor cells. Under the skin of the mice, a human epidermal carcinoma developed in the xenograft animal tumor model. After injection of the tumor cells, the xenograft tumor was allowed to develop to a size of approximately 170-180 mm^3. The A431 tumor cells have the following characteristics: high EGFR expressors, medium CD71 expressors, low HER2 expressors.
In Table 13, the results of the treatment of control mice and tumor-bearing mice are presented. Tumor-bearing mice were treated with the indicated antibodies directed to either human Her2/neu, human EGFR, or human CD71, which are cell-surface receptors on the xenograft tumor. Cetuximab was conjugated with the endosomal escape enhancing saponin SO1861. The ADCs trastuzumab-saporin and anti-CD71 mAb (IgG)-saporin were tested for their tumor-attacking efficacy in the mice, measured as tumor volume in time after start of the treatment with the ADCs. The dose of the ADCs was sub-optimal in the tumor model. That is to say, from previous experiments, it was established at which sub-optimal dose of the ADCs no tumor-regression or arrest of tumor growth would be observable.

A431 cells = type: cell-based, human; conditions: high EGFR / low HER2 (FIG. 10)
Protocol: as §1

[1] = monkeys; versus unconjugated DM1; cited from earlier work

Trastuzumab-(S)-SO1861: stable bond between SO1861 (carboxylic acid group) and the antibody
cell killing (in words) (SK-BR-3 cells): efficient cell killing

Trastuzumab-SO1861 (DAR 2.1): labile bond between the saponin and the antibody
cell killing (in words) (SK-BR-3 cells): also show cell killing effects

Cetuximab: immunoglobulin binding to EGFR
outcome (death/euthanasia or survival) (human A431 tumor cells): (death/euthanasia)

Trastuzumab-SO1861: monoclonal antibody recognizing and binding HER2, conjugated to the saponin SO1861; cleavable hydrazone linker
cell killing (in words) (SK-BR-3 cells): efficient cell killing

Cetuximab-SO1861: monoclonal antibody recognizing and binding EGFR, conjugated to the saponin SO1861; cleavable hydrazone linker
outcome (death/euthanasia or survival) (human A431 tumor cells): death/euthanasia | tumor size (volume) (human A431 tumor cells; about 170-180 mm^3 at start, sub-optimal ADC dose): 2000 mm^3

T-DM1: Trastuzumab-emtansine (Kadcyla), carrying ~3.5 DM1 toxin molecules per antibody
cell killing (in words) (A431 cells): kills cells at nanomolar concentrations; also recorded: not effective at such low toxin concentrations | enhancement of the tolerable dose of DM1 [1]: at least two-fold
